Data on one substance can be found in patent US20020168755A1.

This assay deals with human proTNF-α (human) (UniProt P01375). In words: cell-based or functional assay.

Take “human MT-MMP1 (from UniProt P50281 112-582) (enzyme)”: the least amount of MT-MMP1 vector giving a secreted TNF-α signal by ELISA, co-transfected 293EBNA cells (pg/transfection) was found to be 6.
